The entries are a selection whose mix differs from that of the whole data set. Some structures show a salt or complex split into parts, the way the source records it. The source made the active and inactive calls.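 Rule for the calls: active = activation of at least 50%, plus an integration ratio under a set limit after plate pattern correction; inactive = the rest.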
system: CRF-binding protein / CRF receptor 2 complex (human); assay: activators of CRF-R2 with CRF-BP – cell-based, HEK293, calcium dye fluorescence, uHTS, primary screen (AID 588473); conditions: calcium dye fluorescence (FLIPR), at 13.2 µM, hits give high values, percent of saturating CRF peptide response;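 note: plate controls were neutral control wells without compound for no effect and CRF at EC100 for full effect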

Row | Structure (SMILES) | activation
1 | CP(=O)(Nc1ccccc1F)Oc1ccccc1 (stereo not given) | inactive: -0.83%
2 | CC(C)c1ccc(OP(C)(=O)Nc2ccc(SC(F)(F)F)cc2)cc1 (stereo not given) | inactive: 5.67%
3 | O=[N+]([O-])c1cc([N+](=O)[O-])c(Nc2ccc(Cl)cc2)c([N+](=O)[O-])c1 | active: 68.8%
4 | COc1ccc2c(c1O)-c1c(O)c(OC)cc3c1[C@H](C2)[N+](C)(C)CC3.O=[N+]([O-])c1cc([N+](=O)[O-])c([O-])c([N+](=O)[O-])c1[O-] | inactive: -0.72%
5 | O=C(OC1CN2CCC1CC2)c1ccc([N+](=O)[O-])cc1 (stereo not given) | inactive: -1.63%
6 | O=C(OCCN1CCN(CCOCc2ccccc2)CC1)C(O)(c1ccccc1)c1ccccc1 | inactive: -1.48%
7 | CCOC(=O)c1ccc(NP(C)(=O)Oc2ccc(F)cc2)cc1 (stereo not given) | inactive: -0.44%
8 | COc1ccc(OP(C)(=O)Nc2ccc(SC(F)(F)F)cc2)cc1 (stereo not given) | inactive: 1.37%
9 | CP(=O)(Nc1ccccc1)Oc1ccc(F)cc1 (stereo not given) | inactive: 2.73%
10 | CCCCCOc1ccc(NP(C)(=O)Oc2ccc(Cl)cc2Cl)cc1 (stereo not given) | inactive: -0.87%
11 | O=[N+]([O-])c1cc([N+](=O)[O-])c(OC2CCCCC2O)c([N+](=O)[O-])c1 (stereo not given) | inactive: 0.37%
12 | Cc1c([N+](=O)[O-])cc([N+](=O)[O-])c(Br)c1[N+](=O)[O-] | inactive: -1.46%
13 | CCN(CC)CCCOC(=O)C(O)(c1ccccc1)C1CCCCC1 (stereo not given) | inactive: -1.06%
14 | CN(C)CCOC(=O)C(O)(c1ccccc1)C1CCCCC1 (stereo not given) | inactive: -2.15%
15 | COc1ccc(NP(C)(=O)Oc2ccccc2OC)cc1 (stereo not given) | active: 60.9%
16 | COc1ccc(OP(C)(=O)Nc2cccc(Br)c2)cc1 (stereo not given) | inactive: -0.36%
17 | Cc1c(C(c2ccc3c(c2)OCO3)c2c(C)n(C)n(-c3ccccc3)c2=O)c(=O)n(-c2ccccc2)n1C.O=[N+]([O-])c1cc([N+](=O)[O-])c(O)c([N+](=O)[O-])c1 | inactive: 0.09%
18 | O=[N+]([O-])c1ccc(OP2(=O)COCCO2)cc1 (stereo not given) | inactive: -0.18%
19 | Cc1cc(-c2cccc3ccccc23)c(C)cn1.O=[N+]([O-])c1cc([N+](=O)[O-])c(O)c([N+](=O)[O-])c1 | inactive: -1.8%
20 | O=[N+]([O-])c1cc([N+](=O)[O-])c(NCC2CCS(=O)(=O)C2)c([N+](=O)[O-])c1 (stereo not given) | inactive: 0.14%
21 | CCOP(C)(=S)SCC(=O)NC(C)(CC)C(=O)O (stereo not given) | inactive: 5.09%
22 | CP(=O)(Nc1ccc(SC(F)(F)F)cc1)Oc1ccc(F)cc1 (stereo not given) | inactive: 1.54%
23 | Cc1ccccc1NP(C)(=O)Nc1ccccc1C | inactive: 0.5%
24 | CP(=O)(Nc1ccc2c(c1)OCCO2)Oc1ccccc1 (stereo not given) | inactive: -1.35%

Row | Structure (SMILES) | activation
25 | O=C(OCCCN1CCCC1)C(O)(c1ccccc1)C1CCCCC1 (stereo not given) | inactive: -0.93%
26 | COc1ccccc1OP(C)(=O)Nc1c(C)n(C)n(-c2ccccc2)c1=O (stereo not given) | inactive: -2.93%
27 | CCc1ccc(OP(C)(=O)Nc2cccnc2)cc1 (stereo not given) | inactive: -1.16%
28 | CP(=O)(Oc1ccccc1)N1CCOC1=O (stereo not given) | inactive: -0.22%
29 | COc1ccc(OP(C)(=O)Nc2ccc(Br)cc2)cc1 (stereo not given) | inactive: -1.91%
30 | CCN(CC)CC(O)COC(=O)C(O)(c1ccccc1)C1CCCCC1 (stereo not given) | inactive: 1.11%
31 | CN(C)C(=O)c1c([N+](=O)[O-])cc([N+](=O)[O-])cc1[N+](=O)[O-] | inactive: 2.53%
32 | COc1ccccc1OP(C)(=O)Nc1ccccc1Br (stereo not given) | inactive: 0.55%
33 | CC(C)(C)c1ccc(OP(C)(=O)O)cc1 | inactive: -1.02%
34 | CP(=O)(Nc1ccc(Cl)cc1)Oc1ccc(F)cc1 (stereo not given) | inactive: 2.89%
35 | CCOC(=O)c1ccc(NP(C)(=O)Oc2ccc(Cl)cc2)cc1 (stereo not given) | inactive: 0.31%
36 | CP(=O)(OC12CC3CC(CC(C3)C1)C2)OC12CC3CC(CC(C3)C1)C2 | inactive: 3.66%
37 | Nc1ccc2c(ccc3cccnc32)n1.O=[N+]([O-])c1cc([N+](=O)[O-])c(O)c([N+](=O)[O-])c1 | inactive: -0.57%
38 | COc1ccccc1OP(C)(=O)Nc1ccc(C)c(C)c1 (stereo not given) | inactive: -0.33%
39 | COc1ccc(OP(C)(=O)Nc2ccccc2Br)cc1 (stereo not given) | inactive: -2.03%
40 | Cc1cc(C)cc(OP(C)(=O)Nc2cccc(C(F)(F)F)c2)c1 (stereo not given) | inactive: -2.59%
41 | O=C1C(O)=C([N+](=O)[O-])C(=O)C(O)=C1[N+](=O)[O-] | inactive: -1.45%
42 | CCCCCCCCCCCCCCCC1C[N+](C)(C)CCOP(C)(=O)O1 (stereo not given) | inactive: 47.3%
43 | CP(=O)(Nc1ccc(Cl)cc1Cl)Oc1ccccc1 (stereo not given) | inactive: -0.11%
44 | CP(=O)(OCCOc1ccccc1)OCCOc1ccccc1 | inactive: 1.87%
45 | COc1ccc(OP(C)(=O)Nc2ccccn2)cc1 (stereo not given) | inactive: 3.15%
46 | CN(C)CCOC(=O)C(O)(c1ccccc1)C1CCCC1 (stereo not given) | inactive: -3%
47 | COc1ccccc1OP(C)(=O)Nc1ccc(Br)cc1 (stereo not given) | inactive: -1.81%
48 | COc1ccccc1OP(C)(=O)Nc1ccc(C)cc1C (stereo not given) | inactive: -0.37%

Row | Structure (SMILES) | activation
49 | CP(=O)(Nc1ccccn1)Oc1ccccc1 (stereo not given) | inactive: -2.71%
50 | CCc1ccc(OP(C)(=O)O)cc1 | inactive: 0.21%
51 | Cc1c(NP(C)(=O)Oc2ccc(C(C)C)cc2)c(=O)n(-c2ccccc2)n1C (stereo not given) | inactive: 1.28%
52 | O=[N+]([O-])c1cc([N+](=O)[O-])c(Nc2ccccn2)c([N+](=O)[O-])c1 | inactive: 6.09%
53 | CCN(CC)CCCOC(=O)C(O)(c1ccccc1)c1ccccc1 | inactive: 1.24%
54 | O=[N+]([O-])c1ccc2c(c1)C=Nc1ccccc1O2 | inactive: -2.25%
55 | Cc1cccc(C)c1OP(C)(N)=O (stereo not given) | inactive: 0.01%
56 | CC(C)(C)c1ccc(OP(C)(=O)Nc2ccc(SC(F)(F)F)cc2)cc1 (stereo not given) | inactive: 4.88%
57 | O=[N+]([O-])c1cc([N+](=O)[O-])c(Nc2cccnc2)c([N+](=O)[O-])c1 | active: 66.2%
58 | Cc1cc(C)cc(OP(C)(N)=O)c1 (stereo not given) | inactive: 4.55%
59 | COc1ccc(OP(C)(=O)Nc2cccc(F)c2)cc1 (stereo not given) | inactive: -6.29%
60 | COc1ccccc1OP(C)(=O)Nc1cc(Cl)ccc1C (stereo not given) | inactive: -1.26%
61 | Cc1ccc(NP(C)(=O)Oc2ccccc2)c(C)c1 (stereo not given) | inactive: -0.07%
62 | COc1ccccc1OP(C)(=O)Nc1ccc(C)cc1 (stereo not given) | inactive: -2.27%
63 | CCOC(=O)c1ccc(NP(C)(=O)Oc2ccccc2)cc1 (stereo not given) | inactive: -1.75%
64 | CP(=O)(Nc1ccccc1Br)Oc1ccccc1 (stereo not given) | inactive: 1.35%
65 | COc1ccccc1OP(C)(=O)Nc1ccccc1 (stereo not given) | inactive: 0.11%
66 | CP(=S)(Nn1cnnc1)Oc1ccccc1 (stereo not given) | inactive: 5.18%
67 | Cc1cc(C)cc(OP(C)(=O)Nc2ccc(SC(F)(F)F)cc2)c1 (stereo not given) | inactive: 5.46%
68 | CP(=O)(NC(=O)Nc1ccccc1)Oc1ccccc1 (stereo not given) | inactive: -1.95%
69 | CCc1ccc(OP(C)(=O)N2CCN(c3ccc([N+](=O)[O-])cc3)CC2)cc1 (stereo not given) | inactive: -0.54%
70 | CP(=O)(Oc1ccccc1)OC(c1ccccc1)C(F)(F)F (stereo not given) | inactive: 0.54%
71 | Cc1ccc(Nc2c([N+](=O)[O-])cc([N+](=O)[O-])cc2[N+](=O)[O-])cc1 | inactive: 18%
72 | Cc1cccc(C)c1OP(C)(=O)Nc1ccc(SC(F)(F)F)cc1 (stereo not given) | inactive: -0.85%

Row | Structure (SMILES) | activation
73 | CP(=O)(Nc1ccc(SC(F)(F)F)cc1)Oc1ccc(Cl)cc1 (stereo not given) | inactive: 1.05%
74 | CP(=O)(Nc1ccccn1)Oc1ccc(Cl)cc1 (stereo not given) | inactive: -0.97%
75 | CCOC(=O)c1ccc(NP(C)(=O)Oc2ccc(OC)cc2)cc1 (stereo not given) | inactive: -2.75%
76 | O=[N+]([O-])c1cc([N+](=O)[O-])c(O)c([N+](=O)[O-])c1.c1ccc(Oc2ccncc2)cc1 | inactive: -2.32%
77 | CCOP(C)(=S)SCC(=O)NC(C)C(=O)O (stereo not given) | inactive: 3.31%
78 | O=[N+]([O-])c1cc([N+](=O)[O-])c(-n2nnc3ccccc32)c([N+](=O)[O-])c1 | inactive: 1.14%
79 | Cc1nc2ccc3ccccc3c2s1.O=[N+]([O-])c1cc([N+](=O)[O-])c(O)c([N+](=O)[O-])c1 | inactive: -0.2%
80 | O=[N+]([O-])c1cc([N+](=O)[O-])c(-c2cnn(-c3ccccc3)c2)c([N+](=O)[O-])c1 | inactive: -0.68%
81 | CCOC(=O)C(CC)C1=NC(C)(C)Cc2ccccc21.O=[N+]([O-])c1cc([N+](=O)[O-])c(O)c([N+](=O)[O-])c1 (stereo not given) | inactive: -1.21%
82 | CC1=C2N=C(C=C3N=C(C(C)=C4[N-][C@@](C)([C@@H]5N=C1[C@](C)(CCC(=O)NC[C@@H](C)OP(=O)([O-])O[C@H]1[C@@H](O)[C@@H](n6cnc7cc(C)c(C)cc76)O[C@@H]1CO)[C@H]5CC(N)=O)[C@@](C)(CC(N)=O)[C@@H]4CCC(N)=O)[C@@](C)(CC(N)=O)[C@@H]3CCC(N)=O)C(C)(C)[C@@H]2CCC(N)=O.[C-]#N.[Co+3] | inactive: -1.27%
83 | O=[N+]([O-])c1cc([N+](=O)[O-])c(Nc2nnnn2CCO)c([N+](=O)[O-])c1 | inactive: -0.65%
84 | CCCOc1ccc(NP(C)(=O)Oc2ccc(Cl)cc2)cc1 (stereo not given) | inactive: 0.15%
85 | CP(=O)(Nc1ccc(SC(F)(F)F)cc1)Oc1ccccc1 (stereo not given) | inactive: -0.11%
86 | COc1ccccc1OP(C)(=O)Nc1c(C)cccc1C (stereo not given) | inactive: -0.01%
87 | CN1CCCCC1COC(=O)C1(O)c2ccccc2CCc2ccccc21 (stereo not given) | inactive: 10.8%
88 | O=C(O)c1cccc(Nc2c([N+](=O)[O-])cc([N+](=O)[O-])cc2[N+](=O)[O-])c1 | inactive: -0.76%
89 | CC1=NCCc2c1[nH]c1ccccc21.O=[N+]([O-])c1cc([N+](=O)[O-])c(O)c([N+](=O)[O-])c1 | inactive: 7.44%
90 | CCOC(=O)c1ccc(NP(C)(=O)Oc2cc(C)cc(C)c2)cc1 (stereo not given) | inactive: -0.61%
91 | Cc1cc(C)cc(OP(C)(=O)Nc2ccc(C)cc2C)c1 (stereo not given) | inactive: -0.22%
92 | COc1ccccc1OP(C)(=O)Nc1cccc(Br)c1 (stereo not given) | active: 59.3%
93 | Cc1ccc(C)c(NP(C)(=O)Oc2ccccc2)c1 (stereo not given) | inactive: -1.35%
94 | Cc1cc(C)cc(OP(C)(=O)Nc2ccccn2)c1 (stereo not given) | inactive: -0.33%
95 | CP(=O)(Nc1cccc(Br)c1)Oc1ccccc1 (stereo not given) | inactive: 0.26%

From PubChem BioAssay AID588473 (Sanford-Burnham Center for Chemical Genomics, 2011)
